Target: Kappa-type opioid receptor (Homo sapiens, UniProt P41145)
Assay: biochemical
Type: cell-based, CHO

By UniProt entry, the sequences of proteins in these tests, tags left out. Where a name states a change or a piece, a line headed by the entry shows the natural chain unless it says otherwise.
UniProt P41145: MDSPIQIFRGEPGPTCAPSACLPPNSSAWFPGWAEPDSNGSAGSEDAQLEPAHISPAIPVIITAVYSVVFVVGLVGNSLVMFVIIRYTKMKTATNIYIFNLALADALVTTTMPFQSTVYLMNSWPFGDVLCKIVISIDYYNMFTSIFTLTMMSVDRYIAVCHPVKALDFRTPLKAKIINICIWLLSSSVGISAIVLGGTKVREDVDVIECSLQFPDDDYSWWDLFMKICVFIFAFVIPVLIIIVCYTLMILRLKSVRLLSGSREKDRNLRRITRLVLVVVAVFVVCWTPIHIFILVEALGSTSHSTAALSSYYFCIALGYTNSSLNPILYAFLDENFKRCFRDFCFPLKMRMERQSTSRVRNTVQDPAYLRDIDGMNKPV

Work on `C=C1CC[C@@]2(O)[C@H]3Cc4ccc(O)c5c4[C@@]2(CCN3CC2CC2)[C@H]1O5` yielded a Ki of 0.12 nM.
